Apparent affinities of Ab-14 variants for a coronavirus HR2 peptide

Values reported by Li et al. 2023, doi:10.1038/s41467-023-39022-2 (FLAb copy).

All variants were tested on one target, the spike HR2 peptide PDVDLGDISGINAS (SARS-CoV-2).

Parent: Ab-14, a human scFv built as VH, three GGGGS repeats, VL. Only the CDRs of the heavy chain vary.
VH: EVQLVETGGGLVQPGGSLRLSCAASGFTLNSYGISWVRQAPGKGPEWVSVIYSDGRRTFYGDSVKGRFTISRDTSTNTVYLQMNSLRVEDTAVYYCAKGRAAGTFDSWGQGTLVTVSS
VL: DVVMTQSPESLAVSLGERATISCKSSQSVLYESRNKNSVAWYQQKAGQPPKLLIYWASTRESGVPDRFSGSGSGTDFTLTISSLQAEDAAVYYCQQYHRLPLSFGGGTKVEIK

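The variants were designed computationally from a first round of random CDR variants and then made and measured. Several design methods are mixed in this list. In AlphaSeq, yeast of one mating type display the scFv and yeast of the other type display the target. Binding brings cells together so that they mate, and sequencing counts the barcode pairs among the diploids. Scores were corrected for input abundance and mapped to Kd with protein pairs of known affinity run in the same pool. The assay was run in six technical replicates.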

Each variant is given by its three heavy chain CDRs, as the data file delimits them; those of the parent are GFTLNSYGIS, VIYSDGRRTFYGDSVK, GRAAGTFDS. Variants here have more than six changes. The read-out is the apparent dissociation constant on a log10 scale (nM): the lower, the stronger. Averages over replicates are reported, and they cover detected replicates only. "nd" means that the variant was in the library but no mating with the target was seen in any replicate; the authors take this as a sign of poor binding, and no number exists. A sequence measured in both rounds can read differently, since the two assays cover different ranges. Three control strains display no target. For all heavy chain designs, 1% of the pairings with them gave a signal, with a median of 2.08 and one signal in twenty below 0.84, so weak values seen in few replicates may be background. The parent sequence was in this pool as ten entries: three were never detected, three once, and four in most replicates, with averages from 0.34 to 2.37. In the paper, a design with two or fewer of six values counts as a poor binder.

- GFDLNEYGIS, VIYADGVRSFYADNAK, GNVGIFMEV = nd (0 of 6 replicates)
- GFDIEEYGIS, VIYADGRRVAYADSVK, GIDVYGKVM = nd (0 of 6 replicates)
- GFDLEDYGIS, VIYADGRRTFYSDSVK, GEIAGTFDM = 0.99 (1 of 6 replicates)
- GFDIDEYGVS, VIYADGFRKAYAESVK, GLQQFGFTV = nd (0 of 6 replicates)
- GFNLDEYGIS, VIYADGRRTFYADSVK, GENAGTFDT = -0.53 (6 of 6 replicates)
- GFDLNEYGIS, VIYADGRRTFYSDSVK, GEMGGTFDA = 0.76 (6 of 6 replicates)
- GFDLNEYGIS, VIYADGRRTYYADSVK, GNVAGTFDQ = -0.52 (6 of 6 replicates)
- GFDLDEYGIS, VIYADGVRTAYADKVK, GNNAGTFDV = 0.85 (6 of 6 replicates)
- GFQLDEYGIS, VIYADGQRTAYSKNVK, GYIDFKRID = 3.18 (1 of 6 replicates)
- GFDLGEYGIS, VIYADGSRKAYATNFK, GGSGYKDGV = nd (0 of 6 replicates)
- GFDLNEYGIS, VIYADGMRTAYADSVK, GNVAGTFDI = -0.96 (6 of 6 replicates)
- GFDLNEYGIS, VIYADGLRTAYADSVK, GNEAGTFDV = 0.32 (6 of 6 replicates)
- GQDLAEYGIS, VIYADGKRTYYAQNVK, GTNVGQGDT = nd (0 of 6 replicates)
- GKDIDEYGIS, VIYADGRRTFVADSVK, GINGDFVLA = nd (0 of 6 replicates)
- GFDLNEYGIS, VIYADGMRTFYSDSVK, GNQAGTFDV = -0.34 (6 of 6 replicates)
- GFDLNEYGIS, VIYADGVRTAYIDSVK, GEVAGTFDA = -0.35 (6 of 6 replicates)
- GFDLNEYGIS, VIYADGMRTQYADSVK, GNNAGTFDV = 1.61 (6 of 6 replicates)
- GFDLNEYGIS, VIYADGRRTAYADSVK, GKNAGTFDQ = -0.58 (6 of 6 replicates)
- GFDLNEYGIS, VIYADGKRTFYADSVK, GQNAGTFDI = -0.37 (6 of 6 replicates)
- GFDLNEYGIS, VIYADGKKTAFVNTVK, GELGGNIDD = 0.68 (1 of 6 replicates)
- GFDLDEYGIS, VIYADGMRTFYADSVK, GNTAGTFDI = -0.30 (6 of 6 replicates)
- GFDLNEYGIS, VIYADGVRTAYIDSVK, GEAAGTFDV = 0.47 (6 of 6 replicates)
- GFDLNEYGIS, VIYADGRRTFYSDSVK, GEVAGTFVT = -0.17 (6 of 6 replicates)
- GFDLNEYGIS, VIYADGMRTAYIDSVK, GEQAGTFDI = -0.21 (6 of 6 replicates)
- GFDLNEYGIS, VIYADGVRTAYADSVK, GGTAGTFDV = -0.74 (6 of 6 replicates)
- GFDIEEYGIS, VIYADGQRKSYIDSFK, GQNNGIGMY = nd (0 of 6 replicates)
- GFDLGEYGIS, VIYADGQRVSYQDAVK, GQSSVYYTA = 1.13 (6 of 6 replicates)
- GFDLNEYGIS, VIYADGRRSAYQDSVK, GTNAGTFDQ = -0.33 (6 of 6 replicates)
- GFDLNEYGIS, VIYADGSRTAYADSVK, GQNAGTFDV = -0.22 (6 of 6 replicates)
- GFDLNEYGIS, VIYADGVRTYYADSVK, GNNAGTFDM = -0.63 (6 of 6 replicates)
- GFDIEKYGIS, VIYADGQRVSYDSSVK, GENAGNFMV = 3.14 (1 of 6 replicates)
- GFDLDEYGIS, VIYADGRRTFYADSVK, GNVAGTFDI = -0.40 (6 of 6 replicates)
- GFDLNEYGVS, VIYADGFRTAYTDTVK, GNQFDAIMA = 2.81 (1 of 6 replicates)
- GFALNEYGIS, VIYADGIRSVYANKVK, GNQAGTLLI = nd (0 of 6 replicates)
- GFNLGEYGIS, VIYADGRRTFYINSVK, GEFIVMNSI = nd (0 of 6 replicates)
- GFDLEEYGIS, VIYADGMRTVYAHSVK, GHYGLGKVG = nd (0 of 6 replicates)
- GPNLEEYGIS, VIYADGIRTAYKDSVK, GDVAGIGDF = nd (0 of 6 replicates)
- GFDLNEYGIS, VIYADGMRTFYADSVK, GENAGTFDM = -0.04 (6 of 6 replicates)
- GFDVMEYGIS, VIYADGLRTQYANSVK, GGLRTDFFV = nd (0 of 6 replicates)
- GFDLNEYGIS, VIYADGVRTAYVDDVK, GQNAGTFDV = -0.44 (6 of 6 replicates)
- GFDLNEYGIS, VIYADGRRTFYSDSVK, GHVAGTFIQ = -0.31 (6 of 6 replicates)
- GKDLEEYGIS, VIYADGVRTSYVDQVK, GESGGAYYT = nd (0 of 6 replicates)
- GFDLNEYGIS, VIYADGRRTQYIDSVK, GEIAGTFDI = -0.15 (6 of 6 replicates)
- GDSLNEYGIS, VIYADGSRSKYADKFK, GQVAGYFGV = nd (0 of 6 replicates)
- GADIEEYGIS, VIYADGVRKYYVNSFK, GEMAGTFTN = 1.67 (1 of 6 replicates)
- GFKLDEFGIS, VIYADGLRMHYANSVK, GEMAGTFTT = 1.54 (6 of 6 replicates)
- GFDLNEYGIS, VIYADGRRTFYADSVK, GNEAGTFDQ = -0.71 (6 of 6 replicates)
- GFDLNEYGIS, VIYADGRRTFYADSVK, GTQAGTFDQ = -1.21 (6 of 6 replicates)

A selection of 4 entries from above:

- GFDLNEYGIS, VIYADGVRTAYIDSVK, GEAAGTFDV: 0.47 (6 of 6 replicates)
- GFDLNEYGIS, VIYADGLRTAYADSVK, GNEAGTFDV: 0.32 (6 of 6 replicates)
- GFDLEDYGIS, VIYADGRRTFYSDSVK, GEIAGTFDM: 0.99 (1 of 6 replicates)
- GFDLNEYGIS, VIYADGVRTAYVDDVK, GQNAGTFDV: -0.44 (6 of 6 replicates)